Measurements as given in patent publication US20220380768A1.

Biological target: human CD22 (d1 to d7 domain according to NP_001762.2) (human) (UniProt P20273)
Experiment: SPR

B1: TNT70 variant RL1 N92K (antibody, V domains shown)
VH: QVQLLESGGGVVQPGGSLRLSCAASGFAFSIYDMNWVRQAPGKGLEWVSAISSGGGTTYYADSVKGRFTISRDNAKNSLYLQMNSLRAEDTAVYYCARHSGYGTHWGVLFAYWGRGTLVTVSS
VL: DIQMTQSPSSLSASVGDRVTITCRASQDIHGYLNWYQQKPGKAPKLLIYYTSILHSGVPSRFSGSGSGTDFTLTISSLQPEDFATYFCQQGKTLPWTFGQGTKLEIK
Kd: 0.431 nM
